Source: patent US6552060B1, “Asymmetric disulfides and methods of using same” (Prolx Pharmaceuticals, Inc., priority 1997, dated 2003)

Test system: EMT6 mouse mammary tumor cells
Test: Cytotoxicity against EMT6 cells in culture (MTT)

Cc1ccnc(SSCCCl)n1
IC50 (read-out: Disulfide Cytotoxicity (IC50), Table 5, 48 h exposure, MTT): 73 µM | IC50 (read-out: Toxicity / Cytotoxicity, Table 3): 73 µM

Where two headings read alike, the source gives them in different places.
